Assay results as given in patent US8802694B2, “3,6-diazabicyclo[3.1.1]heptanes as neuronal nicotinic acetycholine receptor ligands” (Targacept, Inc., priority 2009, dated 2014).

The chains behind the UniProt entries cited, without tags or fusion partners. Residues count along the entry.
UniProt P17787, 26-502 limits assumed: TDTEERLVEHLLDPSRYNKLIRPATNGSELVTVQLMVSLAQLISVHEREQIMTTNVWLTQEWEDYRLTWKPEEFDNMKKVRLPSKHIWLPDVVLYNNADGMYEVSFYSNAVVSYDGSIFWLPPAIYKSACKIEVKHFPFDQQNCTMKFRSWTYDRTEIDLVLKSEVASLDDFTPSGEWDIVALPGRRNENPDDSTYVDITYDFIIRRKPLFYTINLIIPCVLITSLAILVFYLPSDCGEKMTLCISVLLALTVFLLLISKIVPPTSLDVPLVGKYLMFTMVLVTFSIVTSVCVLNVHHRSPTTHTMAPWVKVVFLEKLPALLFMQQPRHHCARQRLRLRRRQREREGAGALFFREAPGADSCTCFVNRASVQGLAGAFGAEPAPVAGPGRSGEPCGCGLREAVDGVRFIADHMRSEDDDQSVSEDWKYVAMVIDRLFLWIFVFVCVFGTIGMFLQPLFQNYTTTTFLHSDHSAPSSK
UniProt P43681, 29-627 limits assumed: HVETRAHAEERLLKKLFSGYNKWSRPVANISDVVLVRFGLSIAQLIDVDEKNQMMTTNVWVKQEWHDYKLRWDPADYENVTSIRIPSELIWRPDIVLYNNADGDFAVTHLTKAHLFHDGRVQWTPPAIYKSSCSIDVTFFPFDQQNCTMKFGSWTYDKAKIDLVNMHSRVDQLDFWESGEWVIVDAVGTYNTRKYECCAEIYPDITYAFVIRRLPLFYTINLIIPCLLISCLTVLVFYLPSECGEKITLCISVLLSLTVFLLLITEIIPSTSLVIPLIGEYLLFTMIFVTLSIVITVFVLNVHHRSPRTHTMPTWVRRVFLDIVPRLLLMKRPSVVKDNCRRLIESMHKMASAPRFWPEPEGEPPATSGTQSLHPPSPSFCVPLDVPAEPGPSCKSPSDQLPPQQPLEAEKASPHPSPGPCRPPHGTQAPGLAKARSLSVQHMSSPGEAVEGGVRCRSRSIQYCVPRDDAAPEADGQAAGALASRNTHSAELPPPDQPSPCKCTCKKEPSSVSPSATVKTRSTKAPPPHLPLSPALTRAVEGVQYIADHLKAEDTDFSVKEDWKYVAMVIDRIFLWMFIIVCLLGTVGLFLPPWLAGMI

Molecular target: Human α4β2 (Homo sapiens, UniProt P17787+P43681)
Experiment: Competition binding to human α4β2 receptors in membranes of SH-EP1/human α4β2 cells ([3H]-nicotine)
Settings: read-out: Human α4β2 Ki, membrane competition binding

## Cc1ncoc1C(=O)N1CC2CC(C1)N2
  Ki: 19 nM
